GIV Gai3 FP: inhibitors of GIV peptide binding to Galpha-i3, primary screen, biochemical, fluorescence polarization, FITC-GIV GBA peptide, rat Galphai3. Guanine nucleotide-binding protein G(i) subunit alpha-3 (Rattus norvegicus), P08753. 90 min; stronger effect = lower value; scaled: aluminum fluoride 0%, vehicle 100%. percent of control (FP), % (test concentration not listed). hit rate 0.42% among 210,000. AID 1224905, 2016;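 active = replicate mean at 85% of control or lower, very high polarization wells dropped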;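 note: wells of about 15 µL received 100 nL stock; the first replicate is given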
GIV-Gai FP conf: GIV-Galpha-i3 inhibition, FP confirmation. shares compounds with GIV Gai3 FP. FITC-GIV peptide binding to Galphai3, fluorescence polarization; stronger effect = lower value. fluorescence polarization, mP at 100 µM. actives 38% (n = 580). AID 1259350;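 active = inhibition score of 15 or more, meaning 100 minus mean polarization as percent of control over three replicates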
GIV-Gai AS conf: confirmation of inhibitors of GIV binding to human Galpha-i3 | AlphaScreen counts at 100 µM | AlphaScreen Galphai3-GIV binding, purified proteins, 90 min; stronger effect = lower value | shares compounds with GIV Gai3 FP | actives 39% (n = 580);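 active = inhibition score at or above a set limit, where the score is 100 minus the three-replicate mean percent of control signal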
* = called active by the depositor; ! = not active in a repeat. The sample as a whole holds a higher share of hits than the screen did.

Chains of the proteins cited; added tags and fusions are not shown.
Guanine nucleotide-binding protein G(i) subunit alpha-3 (Rattus norvegicus), P08753, UniProt P08753, whole entry, looked up: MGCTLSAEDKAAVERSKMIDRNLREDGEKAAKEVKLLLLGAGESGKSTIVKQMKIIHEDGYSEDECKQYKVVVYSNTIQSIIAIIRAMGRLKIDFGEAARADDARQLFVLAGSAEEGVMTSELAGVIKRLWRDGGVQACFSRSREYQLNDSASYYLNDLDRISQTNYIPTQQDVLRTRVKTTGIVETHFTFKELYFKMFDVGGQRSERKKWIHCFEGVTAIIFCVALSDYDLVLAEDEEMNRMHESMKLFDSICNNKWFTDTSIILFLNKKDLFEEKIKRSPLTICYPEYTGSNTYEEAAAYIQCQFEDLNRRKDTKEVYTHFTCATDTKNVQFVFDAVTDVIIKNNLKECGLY

How did O=C(Nc1cccc(C(=O)Nc2ccc(S(=O)(=O)O)c3cc(S(=O)(=O)O)cc(S(=O)(=O)O)c23)c1)Nc1cccc(C(=O)Nc2ccc(S(=O)(=O)O)c3cc(S(=O)(=O)O)cc(S(=O)(=O)O)c23)c1 do in these assays?
GIV Gai3 FP: 0.1*; GIV-Gai FP conf: 33*; GIV-Gai AS conf: 3059*

Results for O=C(O)c1cccc(NC(=O)c2cccc(S(=O)(=O)N3CCCCC3)c2)c1 ?
GIV Gai3 FP: 97

What do the screens show for `O=C(O)c1cccc(NC(=O)c2cccc(S(=O)(=O)Nc3cccc(C(=O)O)c3)c2)c1`?
GIV Gai3 FP: 95

What do the screens show for `O=C(CSc1nnc2c(=O)n(-c3ccc(Br)cc3)ccn12)c1ccccc1`?
GIV Gai3 FP: 102

How did CCOc1ccc2c(c1)c1nnc(-c3ccccc3)c-1cn2Cc1ccccc1 do in these assays?
GIV Gai3 FP: 71*; GIV-Gai FP conf: 64; GIV-Gai AS conf: 45947

How did COc1cc2c3nnc(-c4ccccc4)c-3cn(Cc3ccccc3)c2cc1OC do in these assays?
GIV Gai3 FP: 111

Results for c1ccc(Cn2cc3c(-c4ccccc4)nnc-3c3ccccc32)cc1 ?
GIV Gai3 FP: 110

Results for CCOC(=O)CN1C(=O)/C(=c2\sc3nc4ccccc4n3c2=O)c2ccccc21 ?
GIV Gai3 FP: 104

How did COC(=O)c1c(-c2ccc(Cl)cc2)noc1N1CCN(c2ccccc2F)CC1 do in these assays?
GIV Gai3 FP: 71*!; GIV-Gai FP conf: 64; GIV-Gai AS conf: 42746

What do the screens show for `COC(=O)c1c(-c2ccc(Cl)cc2)noc1N1CCN(c2cc(C)ccc2C)CC1`?
GIV Gai3 FP: 109

How did COC(=O)c1c(-c2ccc(Cl)cc2)noc1N1CCN(C)CC1 do in these assays?
GIV Gai3 FP: 99

How did CC1(C)NC(=CC(=O)C(F)(F)F)NC1(C)C do in these assays?
GIV Gai3 FP: 94

How did CC(/C=N/NC(=O)c1ccco1)=C\c1ccco1 do in these assays?
GIV Gai3 FP: 107

Results for COc1ccc(-c2nnc(SCC(=O)Nc3ccccc3OC)nc2-c2ccc(OC)cc2)cc1 ?
GIV Gai3 FP: 115

How did COc1ccc(-c2nnc(SCC(=O)Nc3ccc(C)cc3)nc2-c2ccc(OC)cc2)cc1 do in these assays?
GIV Gai3 FP: 91; GIV-Gai FP conf: 65; GIV-Gai AS conf: 47508

How did COc1ccc(-c2nnc(SCC(=O)Nc3cccc(C)c3C)nc2-c2ccc(OC)cc2)cc1 do in these assays?
GIV Gai3 FP: 119

What do the screens show for `CC(C)N1CCN(C(=O)c2sc3ncccc3c2-n2cccc2)CC1`?
GIV Gai3 FP: 103

How did CCSc1nnc2c(n1)OC(C1CC=C(C)CC1)Nc1ccccc1-2 (configuration not stated) do in these assays?
GIV Gai3 FP: 104

What do the screens show for `COc1cc(NC(=O)c2cc(S(=O)(=O)N3CCOCC3)ccc2Br)c(C(=O)O)cc1OC`?
GIV Gai3 FP: 99

Results for COc1ccc(C2=C(O)C(=O)N(c3ccc(Cl)cc3)C2c2ccccc2)cc1 (configuration not stated) ?
GIV Gai3 FP: 106

Structural class: the entries above containing a COOH group
Results for O=C(O)c1cccc(NC(=O)c2cccc(S(=O)(=O)N3CCCCC3)c2)c1 ?
GIV Gai3 FP: 97

What do the screens show for `O=C(O)c1cccc(NC(=O)c2cccc(S(=O)(=O)Nc3cccc(C(=O)O)c3)c2)c1`?
GIV Gai3 FP: 95

What do the screens show for `COc1cc(NC(=O)c2cc(S(=O)(=O)N3CCOCC3)ccc2Br)c(C(=O)O)cc1OC`?
GIV Gai3 FP: 99

Next compounds.
What do the screens show for `COc1ccc(C2=CC(=O)N(c3ccccc3)C(c3ccccc3)O2)cc1` (configuration not stated)?
GIV Gai3 FP: 90; GIV-Gai FP conf: 65; GIV-Gai AS conf: 40592

How did COc1ccc(C2N(c3ccccc3)OC(=O)N2c2ccccc2)cc1 (configuration not stated) do in these assays?
GIV Gai3 FP: 103

What do the screens show for `CCN(CC)OC(=O)c1c(-c2c(Cl)cccc2Cl)noc1C`?
GIV Gai3 FP: 100

How did CCCC(=O)N(Cc1nc2nc(C)cc(=O)n2[nH]1)c1ccccc1 do in these assays?
GIV Gai3 FP: 106

How did Cc1cc(C)cc(NC(=O)Cn2ncc3c2-c2cc(C)ccc2OC3)c1 do in these assays?
GIV Gai3 FP: 98

How did CCOC(=O)C1=C(C)N=c2s/c(=C/c3ccc(N(CC)CC)o3)c(=O)n2C1c1ccc(OC)cc1 (configuration not stated) do in these assays?
GIV Gai3 FP: 121

How did Cc1cc2c(cc1C)N(C(=O)C(C)C)C(C)(C)c1ssc(=S)c1-2 do in these assays?
GIV Gai3 FP: 93; GIV-Gai FP conf: 68; GIV-Gai AS conf: 45573

Results for CCC(C)C(=O)N1c2cc(C)c(C)cc2-c2c(ssc2=S)C1(C)C (configuration not stated) ?
GIV Gai3 FP: 106

Results for Cc1cc(C)c2c(c1)-c1c(ssc1=S)C(C)(C)N2C(=O)C(C)C ?
GIV Gai3 FP: 106

Results for CCOC(=O)N1CCC(Nc2nn3nnnc3c3ccccc23)CC1 ?
GIV Gai3 FP: 112

What do the screens show for `O=C(NCC1CC1)C1CCN(c2ncnc3c2oc2ccccc23)CC1`?
GIV Gai3 FP: 109

How did C=CCN1C(=O)/C(=C2\SC(=S)N(Cc3ccco3)C2=O)c2cc(Br)ccc21 do in these assays?
GIV Gai3 FP: 105

Results for NC(=O)CN1C(=O)CCSc2ccccc21 ?
GIV Gai3 FP: 102

Results for O=C1Cc2ccccc2C(=O)N1Cc1ccccc1 ?
GIV Gai3 FP: 97

Results for NC(=O)CN1C(=O)Cc2ccccc2C1=O ?
GIV Gai3 FP: 63*; GIV-Gai FP conf: 58*; GIV-Gai AS conf: 12845*
